The text below walks through data of patent US20250205259A1, “CLASS OF 7-((FIVE-MEMBERED HETEROCYCLIC)METHYL)-8-CARBOXYLIC ACID-BENZO CYCLIC BORATE DERIVATIVES AND USES THEREOF” (priority 2022, published 2025).

Amino acid sequences for entries named in this document (tags omitted). Residues count along the entry.
UniProt C7C422, 29-270 limits assumed: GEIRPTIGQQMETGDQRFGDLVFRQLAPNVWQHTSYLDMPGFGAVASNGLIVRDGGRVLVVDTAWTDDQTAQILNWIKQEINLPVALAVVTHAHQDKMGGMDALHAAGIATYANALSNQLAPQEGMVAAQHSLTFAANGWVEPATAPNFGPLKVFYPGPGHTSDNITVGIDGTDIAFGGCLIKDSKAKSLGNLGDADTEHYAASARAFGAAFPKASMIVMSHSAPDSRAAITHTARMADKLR
UniProt C7C422, 29-270 V88L/M154L: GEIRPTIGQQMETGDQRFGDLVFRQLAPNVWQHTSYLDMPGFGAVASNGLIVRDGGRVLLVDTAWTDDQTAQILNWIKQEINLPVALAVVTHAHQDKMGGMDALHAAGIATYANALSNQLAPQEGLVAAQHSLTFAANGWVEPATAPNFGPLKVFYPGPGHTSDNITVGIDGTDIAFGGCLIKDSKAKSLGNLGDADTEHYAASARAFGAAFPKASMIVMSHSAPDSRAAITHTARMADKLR

Molecules are shown by their SMILES. A value given as a limit tells only on which side of the number the result lay.

One test concerns the target NDM-1 (Klebsiella pneumoniae, UniProt C7C422). Description: Inhibitory activity on MBL, fluorescent substrate FC-5. Type of test: biochemical. As to conditions: read-out: Inhibitory activity on MBL NDM-1 (IC50 class).
The target of a further test is NDM-5 (Klebsiella pneumoniae, UniProt C7C422, M154L/V88L). The description is as above. Type of test: biochemical. To be noted: read-out: Inhibitory activity on MBL NDM-5 (IC50 class).
The next test concerns the target AmpC (UniProt P24735). Kind of test: Inhibitory activity on SBL, fluorescent substrate FC-5. As to conditions: read-out: Inhibitory activity on SBL AmpC (IC50 class).

In the case of `O=C(O)c1c(Cn2ncc3c2CNC3)ccc2c1OB(O)CC2` [Compound 66], the IC50 was 10 to 1000 nM at NDM-1, 1000 to 100000 nM on NDM-5 and more than 100000 nM on AmpC.
